Chains of the proteins cited; added tags and fusions are not shown. Residues count along the entry.
UniProt P29597, whole entry: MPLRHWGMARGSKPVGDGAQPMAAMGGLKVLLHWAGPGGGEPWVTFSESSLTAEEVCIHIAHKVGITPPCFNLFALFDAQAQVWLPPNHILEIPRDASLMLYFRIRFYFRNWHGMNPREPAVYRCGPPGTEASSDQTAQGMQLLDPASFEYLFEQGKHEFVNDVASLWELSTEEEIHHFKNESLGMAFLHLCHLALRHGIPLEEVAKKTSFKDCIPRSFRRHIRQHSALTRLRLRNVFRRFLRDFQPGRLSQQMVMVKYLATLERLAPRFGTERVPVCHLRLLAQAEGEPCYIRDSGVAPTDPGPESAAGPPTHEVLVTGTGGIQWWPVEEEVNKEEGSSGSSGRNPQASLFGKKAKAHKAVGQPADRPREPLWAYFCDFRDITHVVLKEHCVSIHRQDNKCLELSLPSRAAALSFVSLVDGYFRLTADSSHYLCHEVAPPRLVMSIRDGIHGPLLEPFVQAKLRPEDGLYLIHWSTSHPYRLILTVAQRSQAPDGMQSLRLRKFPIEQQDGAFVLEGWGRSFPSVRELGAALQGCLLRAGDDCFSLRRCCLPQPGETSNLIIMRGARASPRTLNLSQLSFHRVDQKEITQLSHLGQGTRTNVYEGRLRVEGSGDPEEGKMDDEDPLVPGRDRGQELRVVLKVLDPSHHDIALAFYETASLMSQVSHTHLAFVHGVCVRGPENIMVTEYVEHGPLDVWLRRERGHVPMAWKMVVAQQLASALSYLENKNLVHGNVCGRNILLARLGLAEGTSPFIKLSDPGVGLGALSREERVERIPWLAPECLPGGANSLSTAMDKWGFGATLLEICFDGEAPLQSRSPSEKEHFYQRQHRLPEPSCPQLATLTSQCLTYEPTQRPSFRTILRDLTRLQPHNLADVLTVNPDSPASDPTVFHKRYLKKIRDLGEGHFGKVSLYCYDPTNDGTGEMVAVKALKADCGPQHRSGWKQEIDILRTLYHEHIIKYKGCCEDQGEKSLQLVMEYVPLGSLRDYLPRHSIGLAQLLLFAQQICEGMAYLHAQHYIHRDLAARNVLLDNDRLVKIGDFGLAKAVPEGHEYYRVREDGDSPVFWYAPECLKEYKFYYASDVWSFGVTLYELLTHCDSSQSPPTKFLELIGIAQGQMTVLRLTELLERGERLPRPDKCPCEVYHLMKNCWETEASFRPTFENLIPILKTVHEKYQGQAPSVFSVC
UniProt P29597, 589-875 limits assumed: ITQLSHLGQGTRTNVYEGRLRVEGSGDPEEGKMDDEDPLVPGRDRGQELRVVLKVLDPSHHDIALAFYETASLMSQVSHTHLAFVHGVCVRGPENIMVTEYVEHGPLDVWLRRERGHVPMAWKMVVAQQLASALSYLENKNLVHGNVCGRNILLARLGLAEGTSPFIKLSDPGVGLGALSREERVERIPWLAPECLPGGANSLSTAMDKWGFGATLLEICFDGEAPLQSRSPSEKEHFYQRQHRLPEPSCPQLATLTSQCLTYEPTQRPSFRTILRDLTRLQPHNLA
UniProt P29597, 897-1176 limits assumed: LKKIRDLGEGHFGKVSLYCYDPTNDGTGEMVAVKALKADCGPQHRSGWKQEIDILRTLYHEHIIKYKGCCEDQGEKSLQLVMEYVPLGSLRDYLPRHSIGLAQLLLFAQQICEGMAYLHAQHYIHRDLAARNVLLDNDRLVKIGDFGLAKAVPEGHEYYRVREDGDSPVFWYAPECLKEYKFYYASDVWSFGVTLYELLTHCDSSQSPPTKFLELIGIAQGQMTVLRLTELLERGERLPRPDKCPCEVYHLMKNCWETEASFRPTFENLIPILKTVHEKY
UniProt P23458, whole entry partner: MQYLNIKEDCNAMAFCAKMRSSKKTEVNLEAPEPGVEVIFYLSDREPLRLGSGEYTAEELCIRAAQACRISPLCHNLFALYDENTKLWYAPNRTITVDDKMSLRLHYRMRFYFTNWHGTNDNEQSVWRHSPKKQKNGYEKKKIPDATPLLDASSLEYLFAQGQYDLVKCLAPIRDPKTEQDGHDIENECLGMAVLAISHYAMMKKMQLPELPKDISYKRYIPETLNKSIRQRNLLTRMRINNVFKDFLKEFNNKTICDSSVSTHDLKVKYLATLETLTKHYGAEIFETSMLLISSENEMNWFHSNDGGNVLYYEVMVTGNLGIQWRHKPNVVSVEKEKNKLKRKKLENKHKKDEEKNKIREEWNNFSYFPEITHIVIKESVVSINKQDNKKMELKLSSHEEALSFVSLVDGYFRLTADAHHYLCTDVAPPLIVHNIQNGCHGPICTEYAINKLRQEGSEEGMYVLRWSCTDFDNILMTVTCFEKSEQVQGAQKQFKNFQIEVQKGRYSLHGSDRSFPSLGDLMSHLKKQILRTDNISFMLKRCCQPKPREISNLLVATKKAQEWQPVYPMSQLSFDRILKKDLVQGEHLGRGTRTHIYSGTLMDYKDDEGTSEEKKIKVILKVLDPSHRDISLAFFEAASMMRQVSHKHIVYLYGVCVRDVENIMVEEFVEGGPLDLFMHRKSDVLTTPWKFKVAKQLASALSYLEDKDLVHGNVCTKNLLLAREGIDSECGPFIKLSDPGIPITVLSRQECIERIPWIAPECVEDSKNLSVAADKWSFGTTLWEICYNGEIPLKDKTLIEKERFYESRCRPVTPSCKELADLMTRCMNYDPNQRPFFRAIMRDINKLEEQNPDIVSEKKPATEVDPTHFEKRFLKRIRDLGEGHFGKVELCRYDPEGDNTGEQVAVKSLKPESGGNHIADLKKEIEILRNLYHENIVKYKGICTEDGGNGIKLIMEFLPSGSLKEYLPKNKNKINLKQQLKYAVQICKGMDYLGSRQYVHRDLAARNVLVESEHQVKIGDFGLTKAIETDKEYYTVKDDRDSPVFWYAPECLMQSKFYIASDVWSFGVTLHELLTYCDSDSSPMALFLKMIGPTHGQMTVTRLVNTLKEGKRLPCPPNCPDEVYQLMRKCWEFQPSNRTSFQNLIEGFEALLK
UniProt P23458, 875-1153 limits assumed: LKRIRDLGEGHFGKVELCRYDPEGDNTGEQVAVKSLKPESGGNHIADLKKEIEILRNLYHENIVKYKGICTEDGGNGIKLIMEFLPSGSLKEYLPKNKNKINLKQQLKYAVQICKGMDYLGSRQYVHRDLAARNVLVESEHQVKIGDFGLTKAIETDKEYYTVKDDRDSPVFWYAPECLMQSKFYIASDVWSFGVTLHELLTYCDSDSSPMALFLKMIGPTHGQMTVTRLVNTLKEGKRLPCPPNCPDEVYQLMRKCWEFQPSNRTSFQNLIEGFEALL
UniProt O60674, 849-1124 limits assumed: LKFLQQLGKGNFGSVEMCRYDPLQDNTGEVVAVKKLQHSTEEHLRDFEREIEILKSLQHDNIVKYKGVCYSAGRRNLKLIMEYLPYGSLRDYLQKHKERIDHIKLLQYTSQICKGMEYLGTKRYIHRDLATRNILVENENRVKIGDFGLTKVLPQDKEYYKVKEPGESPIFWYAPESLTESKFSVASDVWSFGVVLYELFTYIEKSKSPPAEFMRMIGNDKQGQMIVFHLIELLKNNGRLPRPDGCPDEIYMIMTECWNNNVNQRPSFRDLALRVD
UniProt P52333, 822-1111 limits assumed: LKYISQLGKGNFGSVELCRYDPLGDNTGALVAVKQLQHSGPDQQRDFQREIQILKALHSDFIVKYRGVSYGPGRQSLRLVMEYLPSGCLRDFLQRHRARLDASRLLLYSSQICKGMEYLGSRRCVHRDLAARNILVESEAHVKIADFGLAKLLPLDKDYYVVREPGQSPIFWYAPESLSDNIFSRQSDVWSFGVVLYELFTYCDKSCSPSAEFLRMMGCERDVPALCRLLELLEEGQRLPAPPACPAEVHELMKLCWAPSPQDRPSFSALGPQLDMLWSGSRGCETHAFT

One assay deals with TYK2/JAK1 (Homo sapiens, UniProt P29597). Kind of assay: TYK2/JAK1 cell activity by IFNα2B stimulation, SEAP reporter in HEK-blue IFNα/β cells. Conditions: HEK-blue IFNα/β cell line, human IFNα2B 1 U/mL, 24 hours, SEAP absorbance at 630 nm. As for the experimental part:
Experimental Example 3: Analysis of TYK2/JAKI cell activity by IFNα2B stimulation
An inhibition effect of TYK2/JAK1 activity of the test compound was analyzed using HEK-blue IFNα/β cell line (InvivoGen) that secretes SEAP (Secreted embryonic alkaline phosphatase) depending on the degree of cell stimulation. Cell culture and evaluation were performed according to the manufacturer's recommendations, and the method thereof is as follows: Cells cultured in a growth medium (Dulbecco's Modified Eagle Medium, 10% Fetal bovine serum, 1% Penicillin-Streptomycin, 100 ug/mL Normocin, 10 mg/mL Blasticidin, […] Zeocin) were collected and resuspended in a test medium (DMEM, 10% FBS, 1% Penicillin-Streptomycin), and 3.5x10^4 cells (160 uL) were dispensed into each well of a 96-well plate. After culturing for 24 hours in a 37°C CO2 incubator, 20 uL of a test compound or control compound (Deucravacitinib) diluted in the test medium was added, and then incubated at 37°C for 1 hour and 30 minutes. Next, 20 uL of human IFNα2B recombinant protein (PBL assay science) prepared with the test medium was added to each well (final concentration 1 U/mL) and then incubated at 37°C for 24 hours. 20 uL and 180 uL of cell supernatant were mixed with a QUANTI-blue reagent (InvivoGen) and then reacted at 37°C for 20-30 minutes. An absorbance at 630 nm was measured using Synergy neo (BioTek Instruments, Inc.). […] [Table 3] Result of TYK2/JAK1 cell activity by IFNα2B stimulation test
As for `[2H]C([2H])([2H])n1cc(-c2cc(OCC(C)(F)F)c(=O)n([C@@H](C)C(F)(F)F)n2)c2cc(NC(C)=O)ncc21`, the IC50 is less than 0.05 µM.
With `CC(=O)Nc1cc2c(-c3ccc(=O)n(C4(C)CCOC4)n3)cn(C3CC(C#N)C3)c2cn1` (stereo not drawn), the IC50 is 0.05 to 0.5 µM.
As for `CCCn1cc(-c2cc(OCC(C)(F)F)c(=O)n([C@@H](C)C(F)(F)F)n2)c2cc(NC(C)=O)ncc21`, the IC50 is less than 0.05 µM.
Regarding `CC(=O)Nc1cc2c(-c3cc(OCC(C)(F)F)c(=O)n([C@@H](C)C(F)(F)F)n3)cn(C3CC4(COC4)C3)c2cn1`, the IC50 is less than 0.05 µM.
In the case of `CC(=O)Nc1cc2c(-c3cc(OCC(C)(F)F)c(=O)n([C@@H](C)C(F)(F)F)n3)cn(C3CC3)c2cn1`, the IC50 is less than 0.05 µM.

The next assay addresses JAK1 JH1 (Homo sapiens, UniProt P23458). Put plainly: JAK kinase domain activity, ADP-Glo kinase assay, JAK1. The following applies: read-out: JAK1 JH1 IC50, substrate IRS1 (Y608) peptide, top concentration 10000 nM. As for the experimental part: (§1) Experimental Example 2: JAK Kinase Domain Activity Analysis
(§2) Kinase domain activity of the JAK family was analyzed using the ADP-Glo kinase assay kit (Promega). The evaluation of the compound was performed according to the manufacturer's protocol, and the method thereof is as follows:
(§3) A 10 mM test compound was diluted to 0.5 mM using DMSO in a 96-well plate, and then 5-fold serial dilutions were performed in DMSO. The diluted compound was diluted to 1/10 with 1x reaction buffer (composition) to prepare a 5x compound solution. 5 uL of the 5x compound solution was mixed with a substrate prepared in the reaction buffer (40 mM Tris, 20 mM MgCl2 and 0.1 mg/ml BSA, 0.05 mM DTT, pH 7.5), and an ATP mixture (10 uL). Next, an enzyme reaction was initiated by adding the JAK family enzyme (10 uL) prepared in the reaction buffer. A short rotation was performed to settle all the solution to the bottom of the plate. The final concentrations of the test compounds in the reaction mixture were 10000, 2000, 400, 80, 16, and 3.2 nM. The concentrations of the control compounds (Brepocitinib or Tofacitinib) were 10 times lower. The enzyme reaction was performed at 25°C for 1 hour. 25 uL of ADP-Glo reagent was added and the reaction was performed at 25 °C for 1 hour. The reaction mixed 50 uL of kinase detection reagent and was stopped, and a luminescence signal was measured using Synergy neo (BioTek Instruments, Inc.). […]
For the compound `[2H]C([2H])([2H])n1cc(-c2cc(OCC(C)(F)F)c(=O)n([C@@H](C)C(F)(F)F)n2)c2cc(NC(C)=O)ncc21`, the IC50 came out at 3 µM.
Turning to `CC(=O)Nc1cc2c(-c3ccc(=O)n(C4(C)CCOC4)n3)cn(C3CC(C#N)C3)c2cn1` (stereo not drawn), the IC50 is greater than 10 µM.
Turning to `CCCn1cc(-c2cc(OCC(C)(F)F)c(=O)n([C@@H](C)C(F)(F)F)n2)c2cc(NC(C)=O)ncc21`, the IC50 was greater than 10 µM.
As to `CC(=O)Nc1cc2c(-c3cc(OCC(C)(F)F)c(=O)n([C@@H](C)C(F)(F)F)n3)cn(C3CC4(COC4)C3)c2cn1`, the IC50 was greater than 10 µM.
As for `CC(=O)Nc1cc2c(-c3cc(OCC(C)(F)F)c(=O)n([C@@H](C)C(F)(F)F)n3)cn(C3CC3)c2cn1`, the IC50 is 7.74 µM.

The target in another assay is JAK2 JH1 (Homo sapiens, UniProt O60674). Put plainly: JAK kinase domain activity, ADP-Glo kinase assay, JAK2. The following applies: read-out: JAK2 JH1 IC50, substrate IGF1R peptide, top concentration 10000 nM. As for the experimental part:
as §1, §2, §3
For orientation: In ADP-Glo the light output rises with the ADP produced.
In the case of `[2H]C([2H])([2H])n1cc(-c2cc(OCC(C)(F)F)c(=O)n([C@@H](C)C(F)(F)F)n2)c2cc(NC(C)=O)ncc21`, the IC50 was found to be 1.09 µM.
As to `CC(=O)Nc1cc2c(-c3ccc(=O)n(C4(C)CCOC4)n3)cn(C3CC(C#N)C3)c2cn1` (stereo not drawn), the IC50 was greater than 10 µM.
The same measure, in the same setting: with `CCCn1cc(-c2cc(OCC(C)(F)F)c(=O)n([C@@H](C)C(F)(F)F)n2)c2cc(NC(C)=O)ncc21` the figure was greater than 10 µM.
As for `CC(=O)Nc1cc2c(-c3cc(OCC(C)(F)F)c(=O)n([C@@H](C)C(F)(F)F)n3)cn(C3CC4(COC4)C3)c2cn1`, the IC50 was greater than 10 µM.
As to `CC(=O)Nc1cc2c(-c3cc(OCC(C)(F)F)c(=O)n([C@@H](C)C(F)(F)F)n3)cn(C3CC3)c2cn1`, the IC50 amounted to 7.45 µM.

The target of another assay is JAK3 JH1 (Homo sapiens, UniProt P52333). Put plainly: JAK kinase domain activity, ADP-Glo kinase assay, JAK3. Conditions: read-out: JAK3 JH1 IC50, substrate Poly (4:1 Glu-Tyr) peptide, top concentration 10000 nM. As for the experimental part:
as §1, §2, §3
Regarding `[2H]C([2H])([2H])n1cc(-c2cc(OCC(C)(F)F)c(=O)n([C@@H](C)C(F)(F)F)n2)c2cc(NC(C)=O)ncc21`, the IC50 was greater than 10 µM.
Take `CC(=O)Nc1cc2c(-c3ccc(=O)n(C4(C)CCOC4)n3)cn(C3CC(C#N)C3)c2cn1` (stereo not drawn): the IC50 is greater than 10 µM.
As to `CCCn1cc(-c2cc(OCC(C)(F)F)c(=O)n([C@@H](C)C(F)(F)F)n2)c2cc(NC(C)=O)ncc21`, the IC50 was greater than 10 µM.
The same measure, in the same setting: with `CC(=O)Nc1cc2c(-c3cc(OCC(C)(F)F)c(=O)n([C@@H](C)C(F)(F)F)n3)cn(C3CC4(COC4)C3)c2cn1` the figure was greater than 10 µM; with `CC(=O)Nc1cc2c(-c3cc(OCC(C)(F)F)c(=O)n([C@@H](C)C(F)(F)F)n3)cn(C3CC3)c2cn1`, greater than 10 µM.

A further assay has as its target TYK2 pseudokinase domain (Homo sapiens, UniProt P29597). Put plainly: TYK2 JH2 pseudokinase domain binding affinity, fluorescence polarization (BPS Bioscience inhibitor screening kit). The following applies: read-out: TYK2 JH2 IC50; polarized fluorescence, 25°C, 1 hour. As for the experimental part: Experimental Example 1: Analysis of domain binding affinity to TYK2 pseudokinase
In order analyze the binding affinity of a test compound to the TYK2 pseudokinase domain, a polarized fluorescence-based TYK2 JH2 Pseudokinase Domain Inhibitor Screening Assay Kit (BPS bioscience) was used. The evaluation of the compound was performed according to the manufacturer's protocol, and the method thereof is as follows:
The test compound or control compound (Deucravacitnib) was serially diluted in DMSO, and then diluted 1/10 with distilled water to prepare 10x compound solution. After mixing the compound solution with Probe 1 prepared with a binding reaction buffer (JH2 binding buffer), a reaction was performed at 25°C for 10 minutes. Next, the reaction was initiated by adding a TYK2 pseudokinase domain enzyme prepared with the binding reaction buffer. The reaction was performed in a black 384-well plate at 25 °C for 1 hour. Polarized fluorescence was measured using Synergy neo (BioTek Instruments, Inc.).
In general terms: Polarisation of emitted light reports the rotation of a fluorescent probe.
For `[2H]C([2H])([2H])n1cc(-c2cc(OCC(C)(F)F)c(=O)n([C@@H](C)C(F)(F)F)n2)c2cc(NC(C)=O)ncc21`, the IC50 came to 0.032 µM.
For the compound `CC(=O)Nc1cc2c(-c3ccc(=O)n(C4(C)CCOC4)n3)cn(C3CC(C#N)C3)c2cn1` (stereo not drawn), the IC50 came out at 0.034 µM.
With `CCCn1cc(-c2cc(OCC(C)(F)F)c(=O)n([C@@H](C)C(F)(F)F)n2)c2cc(NC(C)=O)ncc21`, the IC50 worked out at 0.02 µM.
Take `CC(=O)Nc1cc2c(-c3cc(OCC(C)(F)F)c(=O)n([C@@H](C)C(F)(F)F)n3)cn(C3CC4(COC4)C3)c2cn1`: the IC50 came out at 0.02 µM.
Regarding `CC(=O)Nc1cc2c(-c3cc(OCC(C)(F)F)c(=O)n([C@@H](C)C(F)(F)F)n3)cn(C3CC3)c2cn1`, the IC50 was 0.011 µM.

The next assay has as its target TYK2 JH1 (Homo sapiens, UniProt P29597). Kind of assay: JAK kinase domain activity, ADP-Glo kinase assay, TYK2. The following applies: read-out: TYK2 JH1 IC50, substrate IRS1 (Y608) peptide, top concentration 10000 nM. On the procedure: as §1, §2, §3
With `[2H]C([2H])([2H])n1cc(-c2cc(OCC(C)(F)F)c(=O)n([C@@H](C)C(F)(F)F)n2)c2cc(NC(C)=O)ncc21`, the IC50 turned out to be 7.56 µM.
Same read-out and setting: with `CC(=O)Nc1cc2c(-c3ccc(=O)n(C4(C)CCOC4)n3)cn(C3CC(C#N)C3)c2cn1` (stereo not drawn) the figure was greater than 10 µM; with `CCCn1cc(-c2cc(OCC(C)(F)F)c(=O)n([C@@H](C)C(F)(F)F)n2)c2cc(NC(C)=O)ncc21`, greater than 10 µM; with `CC(=O)Nc1cc2c(-c3cc(OCC(C)(F)F)c(=O)n([C@@H](C)C(F)(F)F)n3)cn(C3CC4(COC4)C3)c2cn1`, greater than 10 µM.
With `CC(=O)Nc1cc2c(-c3cc(OCC(C)(F)F)c(=O)n([C@@H](C)C(F)(F)F)n3)cn(C3CC3)c2cn1`, the IC50 was greater than 10 µM.

Values taken from patent EP4831173A1, “TYK2 INHIBITOR AND USE THEROF” (dated 2026).
